Molecular target: T1, human progesterone receptor (Homo sapiens, UniProt P06401)
T1 sequence (P06401 1-933): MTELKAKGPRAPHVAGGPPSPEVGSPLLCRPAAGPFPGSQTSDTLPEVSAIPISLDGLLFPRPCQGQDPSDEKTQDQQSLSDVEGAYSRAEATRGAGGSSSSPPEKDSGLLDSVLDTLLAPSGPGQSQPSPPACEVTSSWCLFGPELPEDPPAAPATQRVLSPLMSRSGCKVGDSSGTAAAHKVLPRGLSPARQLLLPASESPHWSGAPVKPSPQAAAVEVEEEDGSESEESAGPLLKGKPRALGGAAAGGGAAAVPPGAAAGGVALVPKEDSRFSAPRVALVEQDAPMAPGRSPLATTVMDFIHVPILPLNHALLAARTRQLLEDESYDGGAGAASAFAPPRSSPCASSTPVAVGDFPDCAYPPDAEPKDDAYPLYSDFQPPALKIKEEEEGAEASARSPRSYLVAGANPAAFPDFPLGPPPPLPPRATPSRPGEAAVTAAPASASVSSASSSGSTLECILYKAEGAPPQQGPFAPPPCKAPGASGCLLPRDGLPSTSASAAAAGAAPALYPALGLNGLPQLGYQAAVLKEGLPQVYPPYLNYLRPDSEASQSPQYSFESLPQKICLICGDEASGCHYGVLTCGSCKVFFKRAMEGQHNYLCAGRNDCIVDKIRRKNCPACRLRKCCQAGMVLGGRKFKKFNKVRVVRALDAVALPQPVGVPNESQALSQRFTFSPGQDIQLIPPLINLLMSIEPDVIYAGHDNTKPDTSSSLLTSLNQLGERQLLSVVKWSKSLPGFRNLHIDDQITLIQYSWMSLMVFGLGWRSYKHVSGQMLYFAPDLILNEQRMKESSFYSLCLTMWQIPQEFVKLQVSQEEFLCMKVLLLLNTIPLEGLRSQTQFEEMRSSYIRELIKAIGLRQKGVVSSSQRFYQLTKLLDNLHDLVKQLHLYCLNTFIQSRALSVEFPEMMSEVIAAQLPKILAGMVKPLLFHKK
Assay: Relative binding affinity for the human progesterone receptor
Conditions: progesterone as reference = 100
Procedure: The above-stated binding affinity for the human progesterone receptor is here preferably determined according to EP-A 808 845 or as in I. Lacroix et al., Bioorganic & Medicinal Chemistry, 1999, 7, 2329-2341.
The relative affinity of trimegestone sulfate for the human progesterone receptor was determined experimentally and compared with the 6β—OH and the 1β—OH metabolites of trimegestone (cf. EP-A 808 845).

Relative binding affinity to progesterone receptor: ≡100
SMILES: CC(=O)[C@H]1CC[C@H]2[C@@H]3CCC4=CC(=O)CC[C@]4(C)[C@H]3CC[C@]12C [Progesterone]
